This is an account of results in patent US20190218531A1 (priority 2018, published 2019).

Only a part of the results on these compounds is given; other tests are left out.

The test system of one series is S. elongatus CscB+ cells. Description: Toxicity of 2,4-DNT to planktonic (non-encapsulated) S. elongatus CscB+ cultures. From the text:
FIG. 13A-13K illustrates that encapsulated S. elongatus CscB+ cells are more tolerant of the toxin dinitrotoluene (DNT) than non-encapsulated S. elongatus CscB+ cells and that co-cultures of these two species can degrade DNT (e.g., 2,4-DNT). FIG. 13A graphically illustrates the growth of non-encapsulated S. elongatus CscB+ cells at different levels of 2.4-DNT when grown in suspension as measured by absorption (OD750). As illustrated, low concentrations of DNT slow the growth rate of the S. elongatus CscB+ cells. FIG. 13B graphically illustrates the viability of non-encapsulated S. elongatus CscB+ cells at different levels of DNT when grown in suspension as measured by extracted chlorophyll a concentrations (Chla μg/ml). As illustrated, concentrations of DNT greater than 0.03 mM led to chlorosis of S. elongatus CscB+ cells, as measured by extracted chlorophyll a. FIG. 13C illustrates encapsulation of S. elongatus CscB+ cells in alginate hydrogel beads. S. elongatus CscB+ cells are viable inside these hydrogels for long time periods (e.g., more than 5 months, see, e.g., FIG. 10). FIG. 13D graphically illustrates that Ba-alginate encapsulated S. elongatus CscB+ cells are resistant to much higher concentrations of 2,4-DNT (at least 0.25 mM) than non-encapsulated S. elongatus CscB+ cells (about 0.03 mM), as evaluated by chlorophyll extraction from beads after 7 days of 2,4-DNT exposure (compare to FIG. 13B). […] FIG. 13F illustrates an example of a dnt expression cassette, referred to as pSEVA221-cscRABY. FIG. 13G illustrates the enzymes and products in the Dnt-mediated dinitrotoluene breakdown pathway. FIG. 13H graphically illustrates degradation of 2,4-DNT by engineered P. putida strains bearing the heterologous pathway (P. putida-EM-DNT-S) shown in FIGS. 13F and 13G. […]
Preliminary toxicity assays of planktonic (i.e., free-floating) cultures of S. elongatus cyanobacteria were monitored in the presence of increasing 2.4-DNT.

For series [1], the system named is encapsulated S. elongatus CscB+ cells. The experiment in a line: 2,4-DNT exposure of Ba-alginate encapsulated S. elongatus CscB+ cells. From the text: FIG. 13A-13K illustrates that encapsulated S. elongatus CscB+ cells are more tolerant of the toxin dinitrotoluene (DNT) than non-encapsulated S. elongatus CscB+ cells and that co-cultures of these two species can degrade DNT (e.g., 2,4-DNT). FIG. 13A graphically illustrates the growth of non-encapsulated S. elongatus CscB+ cells at different levels of 2.4-DNT when grown in suspension as measured by absorption (OD750). As illustrated, low concentrations of DNT slow the growth rate of the S. elongatus CscB+ cells. FIG. 13B graphically illustrates the viability of non-encapsulated S. elongatus CscB+ cells at different levels of DNT when grown in suspension as measured by extracted chlorophyll a concentrations (Chla μg/ml). As illustrated, concentrations of DNT greater than 0.03 mM led to chlorosis of S. elongatus CscB+ cells, as measured by extracted chlorophyll a. FIG. 13C illustrates encapsulation of S. elongatus CscB+ cells in alginate hydrogel beads. […] FIG. 13D graphically illustrates that Ba-alginate encapsulated S. elongatus CscB+ cells are resistant to much higher concentrations of 2,4-DNT (at least 0.25 mM) than non-encapsulated S. elongatus CscB+ cells (about 0.03 mM), as evaluated by chlorophyll extraction from beads after 7 days of 2,4-DNT exposure (compare to FIG. 13B). […]

On to `Cc1ccc([N+](=O)[O-])cc1[N+](=O)[O-]`, for which the “2,4-DNT concentration to which cells are resistant” value is “about 0.03 mM” with S. elongatus CscB+ cells (non-encapsulated cells, chlorophyll, compare FIG. 13B) and “at least 0.25 mM” in series [1] (Ba-alginate encapsulated, chlorophyll extraction from beads after 7 days of exposure, FIG. 13D). In the series with S. elongatus CscB+ cells (planktonic cells, extracted chlorophyll a, FIG. 13B), the “2,4-DNT concentration at which cells exhibited bleaching phenotypes indicative of severe stress and/or cell death” value is recorded as “higher than 0.03 mM”. Besides, the “2,4-DNT concentration at which growth of S. elongatus was severely inhibited” value in the series with S. elongatus CscB+ cells (planktonic, exponentially growing cells, OD750, FIG. 13A) is on record as more than 0.008 mM. The “sucrose export of encapsulated cells exposed to 2,4-DNT relative to unexposed encapsulated control” value in series [1] (measured over 24 hours, FIG. 13E) is “comparable rates”.
